Experimental data as given in patent publication US20110223597A1 (priority 2010, published 2011).

By UniProt entry, the sequences of proteins in these tests, tags left out. Residues count along the entry.
UniProt P36537, 24-528: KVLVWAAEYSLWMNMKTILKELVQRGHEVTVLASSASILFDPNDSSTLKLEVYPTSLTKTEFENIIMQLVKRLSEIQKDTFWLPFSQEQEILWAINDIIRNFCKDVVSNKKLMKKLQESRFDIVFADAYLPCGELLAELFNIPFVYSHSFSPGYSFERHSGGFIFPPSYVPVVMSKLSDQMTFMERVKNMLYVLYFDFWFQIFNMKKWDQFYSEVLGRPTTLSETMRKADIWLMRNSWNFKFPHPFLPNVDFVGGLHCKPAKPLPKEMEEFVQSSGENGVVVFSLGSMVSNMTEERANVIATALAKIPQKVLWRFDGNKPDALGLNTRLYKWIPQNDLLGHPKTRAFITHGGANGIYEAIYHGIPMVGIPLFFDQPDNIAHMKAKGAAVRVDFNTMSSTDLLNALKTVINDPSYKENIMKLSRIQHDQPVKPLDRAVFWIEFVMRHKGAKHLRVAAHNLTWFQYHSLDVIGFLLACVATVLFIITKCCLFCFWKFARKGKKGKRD
UniProt P22310, 29-534: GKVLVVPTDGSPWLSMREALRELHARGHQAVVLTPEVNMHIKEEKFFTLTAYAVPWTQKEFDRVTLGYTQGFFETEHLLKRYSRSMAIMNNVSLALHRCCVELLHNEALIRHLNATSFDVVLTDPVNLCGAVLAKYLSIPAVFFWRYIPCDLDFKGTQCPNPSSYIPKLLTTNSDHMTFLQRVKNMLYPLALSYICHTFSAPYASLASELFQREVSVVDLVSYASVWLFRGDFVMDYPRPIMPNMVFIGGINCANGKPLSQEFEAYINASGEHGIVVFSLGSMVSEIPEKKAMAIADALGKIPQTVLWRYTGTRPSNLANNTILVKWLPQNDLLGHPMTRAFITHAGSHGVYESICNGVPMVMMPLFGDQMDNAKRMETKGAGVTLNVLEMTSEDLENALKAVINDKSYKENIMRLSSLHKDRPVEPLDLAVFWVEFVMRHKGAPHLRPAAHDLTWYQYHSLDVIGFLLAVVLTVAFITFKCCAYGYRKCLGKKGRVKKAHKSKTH

Legend:
[1] = target: UGT2B10 67Asp (wild-type) (Homo sapiens, UniProt P36537); test: in vitro; conditions: human, pH 7.5, KM, UGT2B10^67Asp
UGT2B10^67Asp = UGT2B10^67Asp (Homo sapiens, UniProt P36537); test: in vitro; conditions: wild-type UGT 2B10-over-expressing HEK293 cell homogenate; 50 uM OLZ
UGT1A4^24Pro/48Leu = UGT1A4^24Pro/48Leu (Homo sapiens, UniProt P22310); test: in vitro; conditions: wild-type UGT 1A4-over-expressing HEK293 cell homogenate; 50 uM OLZ
[2] = target: UGT1A4 24Pro/48Leu (wild-type) (Homo sapiens, UniProt P22310); test: in vitro; conditions: human, pH 7.5, KM, UGT1A4^24Pro/48Leu
[3] = subjects taking OLZ; urine; cited from earlier work
[4] = OLZ-10-N-glucuronide isomer 1 formation
[5] = OLZ-10-N-glucuronide isomer 2 formation

With `Cc1cc2c(s1)Nc1ccccc1N=C2N1CCN(C)CC1` [OLZ, Olanzapine] the Km at 2 h [1, 4] was 564 ± 15 µM, the Km at 2 h [1, 5] was 818 ± 23 µM and the “glucuronidation activity against OLZ in UGT screening” value (UGT2B10^67Asp) was “detectable levels of activity”. For the same molecule, the “glucuronidation activity against OLZ in UGT screening” value (UGT1A4^24Pro/48Leu) was “detectable levels of activity”, the Km at 2 h [2, 4] was 156 ± 17 µM and the Km at 2 h [2, 5] was 206 ± 37 µM. For the same molecule, the “10-N-glucuronide as share of urinary OLZ glucuronides” value [3] was roughly 67%, the “OLZ glucuronides as share of all urinary OLZ metabolites” value [3] was roughly 61% and the “unchanged OLZ as share of total urinary OLZ” value [3] was roughly 18%.
